From ChEMBL document CHEMBL3046380, “In Vitro and In Vivo Characterization of Alpha-1A Selective Agonists and Their Utility for Stress Incontience” (Med Chem Res, 2004)

Chains of the proteins cited; added tags and fusions are not shown.
UniProt P23944, whole entry: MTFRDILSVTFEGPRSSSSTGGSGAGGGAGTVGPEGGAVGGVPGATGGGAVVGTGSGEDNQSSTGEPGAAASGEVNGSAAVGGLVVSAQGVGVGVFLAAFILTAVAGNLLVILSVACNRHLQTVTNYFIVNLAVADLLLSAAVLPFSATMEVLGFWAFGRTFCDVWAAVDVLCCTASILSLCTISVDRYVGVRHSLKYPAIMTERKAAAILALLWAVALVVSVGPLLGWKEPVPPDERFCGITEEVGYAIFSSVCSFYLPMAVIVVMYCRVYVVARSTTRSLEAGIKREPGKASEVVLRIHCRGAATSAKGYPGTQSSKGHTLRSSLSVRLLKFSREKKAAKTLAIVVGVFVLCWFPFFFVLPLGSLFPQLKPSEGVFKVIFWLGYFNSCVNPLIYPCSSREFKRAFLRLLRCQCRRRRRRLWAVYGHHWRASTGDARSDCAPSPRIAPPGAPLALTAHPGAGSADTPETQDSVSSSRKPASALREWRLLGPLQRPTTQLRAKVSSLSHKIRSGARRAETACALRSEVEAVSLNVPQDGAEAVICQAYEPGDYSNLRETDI

Tests used:
[1] = Selectivity ratio of EC50 for alpha1B adrenoreceptor in rat spleen to EC50 for alpha1A adrenoreceptor in rabbit urethra; format: tissue-based
[2] = Selectivity ratio of Ki for hamster alpha1B adrenoreceptor to Ki for alpha1A adenoreceptor in rat submaxillary gland
[3] = target: Alpha-1D adrenergic receptor (Rattus norvegicus) (UniProt P23944); assay: Agonist activity at alpha1D adrenoreceptor in Rattus norvegicus (rat) aorta

For `CS(=O)(=O)Nc1cccc2c1CCCC2c1c[nH]cn1` (stereo not drawn), the Ratio EC50 [1] was 10, the Ratio Ki [2] was 30 and the Activity [3] was “inactive”.

Calls of active or inactive are those of the source. The rule behind the calls is not given here.
